Protein sequences, listed by entry. Tags and fused reporters are not part of them. Lines headed by an entry give the natural chain unless they say otherwise; changes in a name come on top.
UniProt P35346: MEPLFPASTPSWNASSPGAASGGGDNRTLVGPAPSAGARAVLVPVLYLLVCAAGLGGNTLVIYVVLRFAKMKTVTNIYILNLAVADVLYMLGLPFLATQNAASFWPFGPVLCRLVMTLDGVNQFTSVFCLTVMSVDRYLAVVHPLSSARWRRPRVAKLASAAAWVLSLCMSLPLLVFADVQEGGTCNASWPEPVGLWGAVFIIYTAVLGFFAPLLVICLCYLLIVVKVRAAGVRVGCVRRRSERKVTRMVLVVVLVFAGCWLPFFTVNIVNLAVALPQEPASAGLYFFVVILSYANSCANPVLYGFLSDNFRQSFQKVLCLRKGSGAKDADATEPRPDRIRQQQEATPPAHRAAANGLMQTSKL
UniProt P30872: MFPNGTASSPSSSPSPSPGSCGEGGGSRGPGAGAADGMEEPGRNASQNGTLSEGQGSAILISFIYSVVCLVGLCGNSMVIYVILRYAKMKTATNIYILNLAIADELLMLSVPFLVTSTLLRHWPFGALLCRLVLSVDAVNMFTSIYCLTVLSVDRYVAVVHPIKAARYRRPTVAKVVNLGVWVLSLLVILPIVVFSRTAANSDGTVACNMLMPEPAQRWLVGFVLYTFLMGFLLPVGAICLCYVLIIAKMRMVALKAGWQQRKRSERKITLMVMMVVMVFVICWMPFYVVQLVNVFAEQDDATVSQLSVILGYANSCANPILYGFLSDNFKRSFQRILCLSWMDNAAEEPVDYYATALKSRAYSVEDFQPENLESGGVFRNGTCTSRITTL
UniProt P32745: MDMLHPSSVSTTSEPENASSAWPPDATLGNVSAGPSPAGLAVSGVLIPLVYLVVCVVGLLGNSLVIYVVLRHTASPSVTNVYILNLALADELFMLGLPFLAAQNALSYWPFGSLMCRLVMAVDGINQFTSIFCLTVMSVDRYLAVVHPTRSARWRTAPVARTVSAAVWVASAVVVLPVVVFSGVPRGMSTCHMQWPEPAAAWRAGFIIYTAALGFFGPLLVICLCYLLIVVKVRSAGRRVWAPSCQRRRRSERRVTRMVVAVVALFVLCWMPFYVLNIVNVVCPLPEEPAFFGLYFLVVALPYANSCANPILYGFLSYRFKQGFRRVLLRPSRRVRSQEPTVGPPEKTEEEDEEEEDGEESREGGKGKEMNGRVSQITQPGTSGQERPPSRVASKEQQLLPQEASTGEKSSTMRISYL
UniProt P30874: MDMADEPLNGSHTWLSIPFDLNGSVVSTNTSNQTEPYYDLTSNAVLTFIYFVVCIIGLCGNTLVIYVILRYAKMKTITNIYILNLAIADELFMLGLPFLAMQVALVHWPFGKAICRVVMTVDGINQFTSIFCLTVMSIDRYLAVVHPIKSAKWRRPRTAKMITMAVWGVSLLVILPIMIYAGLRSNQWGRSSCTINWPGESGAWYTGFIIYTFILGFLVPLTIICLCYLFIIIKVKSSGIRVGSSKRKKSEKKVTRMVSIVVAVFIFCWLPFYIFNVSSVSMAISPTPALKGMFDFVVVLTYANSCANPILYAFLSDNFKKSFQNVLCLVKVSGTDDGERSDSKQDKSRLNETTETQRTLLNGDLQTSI

According to patent US20080090756A1, “Somatostatin agonists” (The Administrators of the Tulane Educational Fund, priority 2001, published 2008):

Key:
hSSTR-5 = target: T1, hSSTR-5 (Homo sapiens, UniProt P35346); experiment: Radioligand binding assay, cloned human somatostatin receptor type 5; details: CHO-K1 cell membranes, displacement of [125I]Tyr11-SRIF; mean ± SEM, single values = one experiment; read-out: Kd ± SEM hsst5
T1 construct: each containing the entire coding region of the full-length receptors; expressed in transfected cells
Excerpt: (§1) Functional Expression of the Cloned Human Somatostatin Receptors. The genomic clones containing the human somatostatin receptors (hSSTR-1 to hSSTR-5) (Yamada, Y., et al. al., Proc. Natl. Acad. Sci. USA. 1992, 89, 251-255; Yasuda, K., et al., J. Biol. Chem. 1992, 267, 20422-20428; Yamada, Y., et al., Mol. Pharmacol. 1992, 42, 2136-2142; Rohrer, L., et al., Proc. Natl. Acad. Sci. USA. 1993, 90, 4196-4200.) were kindly provided by Dr. Graeme I. Bell of the University of Chicago. The hSSTR-1, hSSTR-2, hSSTR-3, hSSTR-4 and hSSTR-5 cDNAs were isolated as a 1.5-kb PstI-XmnI fragment, 1.7-kb BamHI-HindIII fragment, 2.0-kb NcoI-HindIII fragment, 1.4-kb NheI-NdeI fragment, and a 1.2-kb HindIII-XbaI fragment, respectively, each containing the entire coding region of the full-length receptors. These fragments were independently subcloned into the corresponding restriction endonuclease sites in the mammalian expression vector pCMV5, downstream from the human cytomegalovirus (CMV) promoter, to produce the expression plasmids pCMV5/hSSTR-1, pCMV5/hSSTR-2, pCMV5/hSSTR-3, pCMV5/hSSTR-4 and pCMV5/hSSTR-5. For transfection into CHO-K1 cells, a plasmid, pRSV-neo (American Type Culture Collection, Rockville, Md.), carrying the neomycin mammalian cell selectable marker was added.
Receptor Expression and Transfection. Transfections were performed by the calcium phosphate method. […] Membranes were prepared from the isolated clones and hSSTR expression was initially assessed for binding with [^125I]Tyr^11-SRIF and [^125I]MK-678 (for SSTR-2). […]
(§2) Specific binding is defined as the total radioligand bound minus that bound in the presence of 1.0 μM SRIF. […] The binding affinities are expressed as Ki values ±SEM (nM) for each of the five receptor subtypes. […]
(§3) The binding affinities (Kd, nM) of all SRIF analogues were determined using their concentration-dependent displacement of ^125I-radiolabeled peptide ligands from membranes isolated from CHO cells transfected with the corresponding human somatostatin receptor.

hSSTR-1 = target: T2, hSSTR-1 (Homo sapiens, UniProt P30872); experiment: Radioligand binding assay, cloned human somatostatin receptor type 1; details: CHO-K1 cell membranes, displacement of [125I]Tyr11-SRIF; mean ± SEM, single values = one experiment; read-out: Kd ± SEM hsst1
T2 construct: each containing the entire coding region of the full-length receptors; expressed in transfected cells
Excerpt: (§4) Functional Expression of the Cloned Human Somatostatin Receptors. The genomic clones containing the human somatostatin receptors (hSSTR-1 to hSSTR-5) (Yamada, Y., et al. al., Proc. Natl. Acad. Sci. USA. 1992, 89, 251-255; Yasuda, K., et al., J. Biol. Chem. 1992, 267, 20422-20428; Yamada, Y., et al., Mol. Pharmacol. 1992, 42, 2136-2142; Rohrer, L., et al., Proc. Natl. Acad. Sci. USA. 1993, 90, 4196-4200.) were kindly provided by Dr. Graeme I. Bell of the University of Chicago. […]
(§5) Receptor Expression and Transfection. […] Membranes were prepared from the isolated clones and hSSTR expression was initially assessed for binding with [^125I]Tyr^11-SRIF and [^125I]MK-678 (for SSTR-2). […]
as §2, §3

hSSTR-3 = target: T3, hSSTR-3 (Homo sapiens, UniProt P32745); experiment: Radioligand binding assay, cloned human somatostatin receptor type 3; details: CHO-K1 cell membranes, displacement of [125I]Tyr11-SRIF; mean ± SEM, single values = one experiment; read-out: Kd ± SEM hsst3
T3 construct: each containing the entire coding region of the full-length receptors; expressed in transfected cells
Excerpt: as §1
Receptor Expression and Transfection. Transfections were performed by the calcium phosphate method. CHO-K1 cells were maintained in α-minimum essential medium (α-MEM; Gibco) supplemented with 10% fetal calf serum and transfected with each of the expression plasmids using calcium phosphate precipitation. Clones that had inherited the expression plasmid were selected in α-MEM supplemented with 500 μg mL^−1 of geneticin (G418; Gibco). Independent CHO-K1 clones were picked by glass-ring cloning and expanded in culture in the selective media. Membranes were prepared from the isolated clones and hSSTR expression was initially assessed for binding with [^125I]Tyr^11-SRIF and [^125I]MK-678 (for SSTR-2).
Radioligand Binding Assays. Cell membranes of the 5 cells types were obtained from homogenates (Polytron setting 6, 15 sec) of the corresponding CHO-K1 cells, in ice-cold Tris-HCl (50 mM) and centrifuged (39000 g, 10 min×2), with an intermediate resuspension in fresh buffer. The final pellets were resuspended in Tris-HCl (10 mM) for assay. Aliquots of the membranes were incubated (30 min at 37° C.) with 0.05 nM [^125I]Tyr^11-SRIF (types 1, 3, 4, 5) or [^125I]MK-678 (type 2) in […] (pH 7.4) containing BSA (10 mg mL^−1); MgCl2 (5 mM), Trasylol (200 kIU mL^−1), bacitracin (0.02 mg mL^−1), and phenylmethanesulfonyl fluoride (0.02 mg mL^−1). The final assay volume was 0.3 mL and incubations were terminated by rapid filtration through GF/C filters pre-soaked in 0.3% poly(ethylenimine) using a Brandel rapid filtration module. Each tube and filter was then washed with aliquots of cold buffer (3×5 mL).
as §2, §3

hSSTR-2 = target: T4, hSSTR-2 (Homo sapiens, UniProt P30874); experiment: Radioligand binding assay, cloned human somatostatin receptor type 2; details: CHO-K1 cell membranes, displacement of [125I]MK-678; mean ± SEM, single values = one experiment; read-out: Kd ± SEM hsst2
T4 construct: each containing the entire coding region of the full-length receptors; expressed in transfected cells
Excerpt: as §4, §5, §2, §3

Structure (SMILES) | Kd (hSSTR-5) [nM] | Kd (hSSTR-3) [nM] | further results
C[C@@H](O)[C@H](NC(=O)[C@@H]1CSSC[C@H](NC(=O)[C@H](N)Cc2ccccc2)C(=O)N[C@@H](Cc2ccccc2)C(=O)N[C@H](Cc2c[nH]c3ccccc23)C(=O)N[C@@H](CCCCN)C(=O)N[C@@H]([C@@H](C)O)C(=O)N1C)C(N)=O [Example 7, DPhe-cyclo(Cys-Phe-DTrp-Lys-Thr-NMeCys)-Thr-NH2] |  | 44.4 ± 8.36 | 
C[C@@H](O)[C@H](NC(=O)[C@@H]1CSSC[C@H](N(C)C(=O)[C@@H](N)Cc2ccc(O)cc2)C(=O)N[C@@H](Cc2ccccc2)C(=O)N[C@H](Cc2c[nH]c3ccccc23)C(=O)N[C@@H](CCCCN)C(=O)N[C@@H]([C@@H](C)O)C(=O)N1)C(N)=O [Example 11, Tyr-cyclo(NMeCys-Phe-DTrp-Lys-Thr-Cys)-Thr-NH2] |  |  | Kd (hSSTR-1): 862 ± 162 nM
C[C@@H](O)[C@H](NC(=O)[C@@H]1CSSC[C@H](NC(=O)[C@@H](N)Cc2ccc(O)cc2)C(=O)N(C)[C@@H](Cc2ccccc2)C(=O)N[C@H](Cc2c[nH]c3ccccc23)C(=O)N[C@@H](CCCCN)C(=O)N[C@@H]([C@@H](C)O)C(=O)N1)C(N)=O [Example 12, Tyr-cyclo(Cys-NMePhe-DTrp-Lys-Thr-Cys)-Thr-NH2] |  |  | Kd (hSSTR-2): 40.1 ± 3.79 nM
C[C@@H](O)[C@H](NC(=O)[C@@H]1CSSC[C@H](NC(=O)[C@@H](N)Cc2ccc(O)cc2)C(=O)N[C@@H](Cc2ccccc2)C(=O)N(C)[C@H](Cc2c[nH]c3ccccc23)C(=O)N[C@@H](CCCCN)C(=O)N[C@@H]([C@@H](C)O)C(=O)N1)C(N)=O [Example 13, Tyr-cyclo(Cys-Phe-NMeDTrp-Lys-Thr-Cys)-Thr-NH2] |  | 8 ± 0.9 | 
C[C@@H](O)[C@H](NC(=O)[C@@H]1CSSC[C@H](NC(=O)[C@@H](N)Cc2ccc(O)cc2)C(=O)N[C@@H](Cc2ccccc2)C(=O)N[C@H](Cc2c[nH]c3ccccc23)C(=O)N[C@@H](CCCCN)C(=O)N[C@@H]([C@@H](C)O)C(=O)N1C)C(N)=O [Example 16, Tyr-cyclo(Cys-Phe-DTrp-Lys-Thr-NMeCys)-Thr-NH2] | 16.9 | 17 ± 2.75 | 

The next lines start with results.

Kd (hSSTR-5) [nM] | Kd (hSSTR-3) [nM] | Structure (SMILES) | further results
83.2 ± 25.8 |  | C[C@@H](O)[C@H](NC(=O)[C@@H]1CSSC[C@H](NC(=O)[C@H](N)Cc2ccccc2)C(=O)N(C)[C@@H](Cc2ccccc2)C(=O)N[C@H](Cc2c[nH]c3ccccc23)C(=O)N[C@@H](CCCCN)C(=O)N[C@@H]([C@@H](C)O)C(=O)N1)C(N)=O [Example 3, DPhe-cyclo(Cys-NMePhe-DTrp-Lys-Thr-Cys)-Thr-NH2] | 
8.41 ± 6.85 | 67.5 ± 10 | C[C@@H](O)[C@H](NC(=O)[C@@H]1CSSC[C@H](NC(=O)[C@H](N)Cc2ccccc2)C(=O)N[C@@H](Cc2ccccc2)C(=O)N[C@H](Cc2c[nH]c3ccccc23)C(=O)N(C)[C@@H](CCCCN)C(=O)N[C@@H]([C@@H](C)O)C(=O)N1)C(N)=O [Example 5, DPhe-cyclo(Cys-Phe-DTrp-NMeLys-Thr-Cys)-Thr-NH2] | Kd (hSSTR-1): 867 ± 102 nM
 | 3.01 ± 1.05 | CN[C@@H](Cc1ccc(O)cc1)C(=O)N[C@H]1CSSC[C@@H](C(=O)N[C@H](C(N)=O)[C@@H](C)O)NC(=O)[C@H]([C@@H](C)O)NC(=O)[C@H](CCCCN)NC(=O)[C@@H](Cc2c[nH]c3ccccc23)NC(=O)[C@H](Cc2ccccc2)NC1=O [Example 10, NMeTyr-cyclo(Cys-Phe-DTrp-Lys-Thr-Cys)-Thr-NH2] | 
